Biological target: PRMT3 (Homo sapiens, UniProt O60678)
Test: PRMT3 Biochemical Assay (3H-SAM Flashplate, peptide substrate)
Settings: read-out: Biochemical IC50 PRMT3; 30 min preincubation, room temperature
From the text: S-adenosylmethionine (SAM), S-adenosylhomocysteine (SAH), bicine, Tween20, dimethylsulfoxide (DMSO), bovine skin gelatin (BSG), isopropyl-β-D-thiogalactopyranoside (IPTG), and Tris(2-carboxyethyl)phosphine hydrochloride solution (TCEP) were purchased from Sigma-Aldrich at the highest level of purity possible. ^3H-SAM was purchase from American Radiolabeled Chemicals with a specific activity of 80 Ci/mmol. 384-well streptavidin Flashplates were purchased from PerkinElmer.
Peptide containing the classic RMT substrate motif was synthesized with an N-terminal linker-affinity tag motif and a C-terminal amide cap by 21st Century Biochemicals. The peptide was purified by high-performance liquid chromatography (HPLC) to greater than 95% purity and confirmed by liquid chromatography mass spectrometry (LC-MS). The sequence was Biot-Ahx-GGRGGFGGRGGFGGRGGFG-amide (SEQ ID NO.:11).
Full-length human PRMT3 (NM_005788.3) isoform 1 transcript clone was amplified from an HEK 293 cDNA library and subcloned into pGEX-KG (GE Life Sciences). The resulting construct encodes an N-terminal GST tag and a thrombin cleavage sequence ([…] […] […] […]) (SEQ ID NO.: 12) fused directly to Cys 2 of PRMT3.
E. coli (BL21(DE3) Gold, Stratagene) made competent by the CaCl2 method were transformed with the PRMT3 construct and ampicillin selection. […]

Protein sequences, listed by entry. Tags and fused reporters are not part of them. Chains listed by the source or under a name are the forms on record and can include a tag or linker. Residues count along the entry.
UniProt O60678, 2-531 with tags or gaps: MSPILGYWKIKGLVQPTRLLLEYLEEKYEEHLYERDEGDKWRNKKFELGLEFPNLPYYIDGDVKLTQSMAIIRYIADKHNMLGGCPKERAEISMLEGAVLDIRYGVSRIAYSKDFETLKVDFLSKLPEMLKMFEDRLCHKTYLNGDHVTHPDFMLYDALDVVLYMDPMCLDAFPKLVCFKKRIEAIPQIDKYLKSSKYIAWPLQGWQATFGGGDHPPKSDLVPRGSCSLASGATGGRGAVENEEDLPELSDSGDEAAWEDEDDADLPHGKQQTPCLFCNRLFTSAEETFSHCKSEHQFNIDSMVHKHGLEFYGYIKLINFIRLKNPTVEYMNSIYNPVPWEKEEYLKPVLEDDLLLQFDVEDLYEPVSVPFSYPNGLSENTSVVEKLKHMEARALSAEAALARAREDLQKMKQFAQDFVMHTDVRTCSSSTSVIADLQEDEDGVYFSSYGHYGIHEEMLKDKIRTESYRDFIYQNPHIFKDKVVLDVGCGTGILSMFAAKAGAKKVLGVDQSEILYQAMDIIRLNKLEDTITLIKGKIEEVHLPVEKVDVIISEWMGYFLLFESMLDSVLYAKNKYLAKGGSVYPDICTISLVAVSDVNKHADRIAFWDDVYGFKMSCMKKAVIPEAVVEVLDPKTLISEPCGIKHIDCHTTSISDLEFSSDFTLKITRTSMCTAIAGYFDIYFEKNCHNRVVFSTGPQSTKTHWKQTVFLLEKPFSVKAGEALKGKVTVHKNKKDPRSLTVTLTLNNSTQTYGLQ

SMILES | IC50 [µM]
CNCCN(C)Cc1c[nH]nc1-c1csc2ccccc12 | 1.01 to 3
CNCCN(C)Cc1c[nH]nc1-c1cncnc1 | 3.01 to 10
